The test system of assay [1] is Cavia porcellus. In words: Effect on in vivo functional detrusor muscle contraction strength using guinea pig model of cystometrogram. To be noted: Muscle tissue.
The species entered for assay [2] is Cavia porcellus. Put plainly: Antimuscarinic effect determined by comparing ability to inhibit carbachol-induced guinea pig detrusor muscle contractions. In kind it is functional.

Molecules are shown by their SMILES.

`CC(C)(C)NCC#CCCC(=O)C(O)(c1ccccc1)C1CCCCC1` (configuration not stated) returned a Potency with Cavia porcellus [1] of 8.9. In addition, the Kb in the assay filed under Cavia porcellus [2] turned out to be 4.3 µM.

The values above are taken from ChEMBL document CHEMBL1125773, “Analogues of oxybutynin. Synthesis and antimuscarinic and bladder activity of some substituted 7-amino-1-hydroxy-5-heptyn-2-ones and related compounds” (1991).
